{"sequences": {"note": "Protein sequences, listed by entry. Tags and fused reporters are not part of them. Lines headed by an entry give the natural chain unless they say otherwise; changes in a name come on top.", "UniProt P41145": "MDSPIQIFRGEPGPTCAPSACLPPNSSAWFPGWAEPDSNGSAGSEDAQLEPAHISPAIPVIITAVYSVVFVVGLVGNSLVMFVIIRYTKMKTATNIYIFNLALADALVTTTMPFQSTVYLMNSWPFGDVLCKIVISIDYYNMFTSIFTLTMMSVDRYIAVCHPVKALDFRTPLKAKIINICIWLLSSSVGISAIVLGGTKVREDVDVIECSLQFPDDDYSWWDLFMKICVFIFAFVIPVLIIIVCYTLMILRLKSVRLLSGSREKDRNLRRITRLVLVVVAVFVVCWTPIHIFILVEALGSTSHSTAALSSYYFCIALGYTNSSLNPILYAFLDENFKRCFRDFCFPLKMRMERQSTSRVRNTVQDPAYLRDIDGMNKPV"}, "source": "patent US20250100987A1", "about": "(priority 2021, published 2025)", "biological_target": "Kappa opioid receptor (KOR) (Homo sapiens, UniProt P41145)", "assay": "DiscoverX cAMP Hunter eXpress KOR GPCR Assay kit, Experiment 3.1 (96-well)", "format": "cell-based", "settings": "lowest concentration tested, 0.1 nM, 15 μM Forskolin"}
{"smiles": "COC(=O)[C@@H]1C[C@H](OC(C)=O)C(=O)[C@H]2[C@@]1(C)CC[C@H]1C(=O)O[C@H](c3ccoc3)C[C@]21C", "values": [{"measurement": "inhibition of cAMP production", "result": 100, "unit": "%"}]}
